Entries after “also recorded” stand apart in the source; their conditions may differ.
Assays:
[1] = Body weight, survival and tolerance of mice bearing Calu-6 (Example 9); conditions: 6 animals per group;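 further: nude mice bearing Calu-6 tumours, established by implanting 5.0×10^6 cells at the right shoulder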
[2] = Body weight, survival and tolerance of mice bearing Hep3B (Example 7); type: in vivo, mouse; conditions: for N, number of surviving animals after completion of the treatment: 6 animals per group
[3] = Body weight, survival and tolerance of mice bearing H460 (Example 8); conditions: 6 animals per group
[4] = Body weight, survival and tolerance of mice bearing A549 (Example 10); conditions: 6 animals per group;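 further: nude mice, each given 1.0×10^7 A549 tumor cells in the right shoulder region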
[5] = Body weight, survival and tolerance of mice bearing plc/prf/5 (Example 6); type: in vivo, nude mouse; conditions: for N, number of surviving animals after completion of the treatment: 6 animals per group
Source text: Wherein QW×4W represents intravenous injection once a week for 4 weeks, BIW×4W represents intravenous injection […] for 4 weeks, the same below. (2) Experimental Results

monomethoxy polyethylene glycol (20K)-glutamic acid dipeptide-rapamycin conjugate [LPR-2]
N, number of surviving animals after completion of the treatment ([1]; 30 mg/kg i.v. BIW×4W): 6 | N, number of surviving animals after completion of the treatment ([1]; 45 mg/kg i.v. QW×4W): 6 | N, number of surviving animals after completion of the treatment ([2]; 30 mg/kg i.v. BIW×4W): 6 | N, number of surviving animals after completion of the treatment ([2]; 45 mg/kg i.v. QW×4W): 6 | toxicity / tolerance (in words) ([2]; 5-FU 15 mg/kg, LPR-2 30 and 45 mg/kg): a good tolerance and no death of animals occurred | N, number of surviving animals after completion of the treatment ([3]; 30 mg/kg i.v. BIW×3W): 6 | N, number of surviving animals after completion of the treatment ([3]; 45 mg/kg i.v. QW×3W): 6 | N, number of surviving animals after completion of the treatment ([4]; 30 mg/kg i.v. BIW×4W): 6 | N, number of surviving animals after completion of the treatment ([4]; 45 mg/kg i.v. QW×4W): 6 | N, number of surviving animals after completion of the treatment ([5]; 30 mg/kg i.v. BIW×4W): 6 | N, number of surviving animals after completion of the treatment ([5]; 45 mg/kg i.v. QW×4W): 6 | toxicity / tolerance (in words) ([5]; 5-FU 25 mg/kg, LPR-2 30 and 45 mg/kg): No abnormality; also recorded: a good tolerance and no death of animals occurred

Reference: US10098870B2 (JENKEM TECHNOLOGY CO., LTD. (BEIJING), priority 2013, dated 2018)
